These results are taken from PubChem BioAssay AID504861 (Broad Institute, 2011).

Only a part is listed here, and it is no random draw. Potency and affinity values are given separately. Calls of active or inactive are those of the source.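 The calls were made as follows: active = compounds lowering cell viability signal with fitted half-maximal concentration at most ten times their highest tested concentration; inconclusive = flat fit with 30 to 70% signal loss, or poor fit; inactive = the rest.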

This assay is described as follows: cytotoxicity in HEK293T cells – cell-based, CellTiter-Glo luminescence, cherry-picks, cytotoxicity control for LMP1 NF-kB inhibitor project, dose response (AID 504861). The settings on record: HEK293T viability, CellTiter-Glo ATP luminescence, 48 h; at 26 µM (top of the series). In general terms: In ATP-based viability assays light output follows the ATP content of the culture.
In the case of `N#C/C(=C\c1ccc(N(CCBr)CCBr)cc1)C(N)=O`, the activity change, negative = cytotoxicity was inactive: -13.9%.
